Values of other authors as cited in patent US20180015051A1, “MODULATORS OF ALPHA-DICARBONYL DETOXIFICATION AND THEIR USE FOR THE TREATMENT OF DIABETIC PATHOLOGIES” (Buck Institute for Research on Aging, priority 2016, published 2018).

Conditions: in mammals; Teichert et al. (2003); cited from earlier work

In the case of `O=C(O)CCCCC1CCSS1` (stereo not shown) [LA, a-lipoic acid], the Metabolism is listed as “extensively metabolized”.
